Target: SMT3–Hairless NTCT fusion protein (residues 232–358) (Drosophila melanogaster) (UniProt Q02308)
Assay: ITC

Amino acid sequences for entries named in this document (tags omitted). A change or cut given only in a name is not applied to a line headed by its entry. Residues count along the entry.
UniProt Q02308, 232-358: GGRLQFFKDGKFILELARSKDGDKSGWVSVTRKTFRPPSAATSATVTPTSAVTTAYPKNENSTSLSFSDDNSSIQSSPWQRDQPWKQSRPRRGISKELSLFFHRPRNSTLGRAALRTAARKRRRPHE
UniProt P28159: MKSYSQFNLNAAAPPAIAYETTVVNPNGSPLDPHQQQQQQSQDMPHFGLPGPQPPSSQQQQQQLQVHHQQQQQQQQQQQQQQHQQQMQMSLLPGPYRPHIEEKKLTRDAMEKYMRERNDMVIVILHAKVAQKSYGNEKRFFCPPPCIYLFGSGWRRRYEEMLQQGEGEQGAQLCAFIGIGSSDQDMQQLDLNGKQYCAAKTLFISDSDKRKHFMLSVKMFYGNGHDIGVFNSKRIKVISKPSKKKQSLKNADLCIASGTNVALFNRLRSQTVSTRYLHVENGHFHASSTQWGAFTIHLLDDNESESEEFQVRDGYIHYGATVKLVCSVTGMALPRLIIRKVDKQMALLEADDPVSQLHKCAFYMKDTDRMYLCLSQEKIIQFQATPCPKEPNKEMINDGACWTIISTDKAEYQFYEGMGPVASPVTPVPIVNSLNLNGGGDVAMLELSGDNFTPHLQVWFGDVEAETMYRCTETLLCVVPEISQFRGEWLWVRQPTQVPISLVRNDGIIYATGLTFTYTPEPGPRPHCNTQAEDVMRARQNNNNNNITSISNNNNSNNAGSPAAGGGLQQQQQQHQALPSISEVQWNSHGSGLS

Su(H) NH-CTD (amino acids 101–119 + 415–523) (from UniProt P28159) (domain or fragment)
stoichiometry N: 0.9

From paper PMC3164469
